Biological target: Metabotropic glutamate receptor 5 (Rattus norvegicus, UniProt P31424)
Experiment: Inhibition of [3H]MPEP binding to mGluR5 in rat brain membrane
Assay type: cell membranes
In short: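 Rat brain membranes spun twice at 30,000g for 10 min, resuspended in ice-cold 50 mM Tris–HCl pH 7.0 with 1% BSA. Binding sites labeled with 1 nM [3H]MPEP in leupeptin/chymostatin/bestatin protease inhibitor cocktail, with NaCl added. Displacement by 10 drug concentrations run three times. Incubated 2.5 h at 4 °C to steady state, then filtered over PEI-presoaked glass-fibre filters.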

Amino acid sequences for entries named in this document (tags omitted).
UniProt P31424, whole entry: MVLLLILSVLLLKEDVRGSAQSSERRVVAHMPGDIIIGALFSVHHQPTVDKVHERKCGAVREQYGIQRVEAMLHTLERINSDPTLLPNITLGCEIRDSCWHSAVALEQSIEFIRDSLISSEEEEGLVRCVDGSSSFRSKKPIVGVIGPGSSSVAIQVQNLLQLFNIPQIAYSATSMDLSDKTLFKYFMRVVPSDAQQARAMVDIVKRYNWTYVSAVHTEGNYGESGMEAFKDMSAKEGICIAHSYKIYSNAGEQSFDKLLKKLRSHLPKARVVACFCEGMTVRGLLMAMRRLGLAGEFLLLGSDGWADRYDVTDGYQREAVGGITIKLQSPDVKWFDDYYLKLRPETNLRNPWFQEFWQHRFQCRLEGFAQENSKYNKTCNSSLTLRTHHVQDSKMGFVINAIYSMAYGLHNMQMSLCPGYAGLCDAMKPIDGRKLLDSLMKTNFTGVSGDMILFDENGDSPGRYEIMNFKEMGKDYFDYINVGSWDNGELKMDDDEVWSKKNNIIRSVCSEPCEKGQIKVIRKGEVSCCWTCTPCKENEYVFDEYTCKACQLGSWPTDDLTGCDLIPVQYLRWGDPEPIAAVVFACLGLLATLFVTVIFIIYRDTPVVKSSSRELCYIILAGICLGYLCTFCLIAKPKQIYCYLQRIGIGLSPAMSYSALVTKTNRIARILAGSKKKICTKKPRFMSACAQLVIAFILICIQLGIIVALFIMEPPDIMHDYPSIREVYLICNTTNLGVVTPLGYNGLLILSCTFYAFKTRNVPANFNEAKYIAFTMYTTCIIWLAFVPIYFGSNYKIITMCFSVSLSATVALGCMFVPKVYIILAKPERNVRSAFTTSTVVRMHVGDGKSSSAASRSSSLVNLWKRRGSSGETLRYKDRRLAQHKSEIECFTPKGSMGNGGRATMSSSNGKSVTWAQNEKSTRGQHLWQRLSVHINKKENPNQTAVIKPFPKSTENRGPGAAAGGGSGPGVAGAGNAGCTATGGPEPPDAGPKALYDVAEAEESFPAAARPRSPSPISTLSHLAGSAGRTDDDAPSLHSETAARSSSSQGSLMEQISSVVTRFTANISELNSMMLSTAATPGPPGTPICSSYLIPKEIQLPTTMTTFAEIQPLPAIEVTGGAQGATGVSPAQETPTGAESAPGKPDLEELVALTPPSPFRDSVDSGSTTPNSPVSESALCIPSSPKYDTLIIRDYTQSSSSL

`Cc1cccc(C#Cc2ccccc2)n1` gave an IC50 of 13 nM.

Source: ChEMBL document CHEMBL1138071, “Design and synthesis of noncompetitive metabotropic glutamate receptor subtype 5 antagonists” (Bioorg Med Chem Lett, 2006)
